# scFv variants of Ab-95 (light chain) against a SARS-CoV-2 spike peptide

Target: peptide PDVDLGDISGINAS, taken from heptad repeat 2 (HR2) of SARS-CoV-2 spike.

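The starting antibody came from a phage panning campaign against this peptide. AAYL52 was designed without a model: most single CDR substitutions and a random sample of double and triple ones. AlphaSeq pools MATa yeast showing the antibodies with MATalpha yeast showing the peptide. Binding brings cells together so that they mate, and sequencing counts the barcode pairs among the diploids. The ratio of observed to expected reads was calibrated, replicate by replicate, on BCL2-family standards whose Kd was known from biolayer interferometry. There are three technical replicates.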

Ab-95 is the parent antibody, in scFv form: VH, then a (GGGGS)3 linker, then VL. The heavy chain is unchanged in all variants.
VH: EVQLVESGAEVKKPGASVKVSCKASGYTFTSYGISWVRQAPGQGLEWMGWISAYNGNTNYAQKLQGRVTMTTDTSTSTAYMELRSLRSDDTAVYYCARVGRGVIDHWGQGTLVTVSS
VL: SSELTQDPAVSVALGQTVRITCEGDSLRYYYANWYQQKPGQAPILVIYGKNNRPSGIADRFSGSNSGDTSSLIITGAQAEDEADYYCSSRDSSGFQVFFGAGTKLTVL

Variants are written as CDR1, CDR2 and CDR3 of the light chain (limits as in the source). Parent: EGDSLRYYYAN, GKNNRPS, SSRDSSGFQVF.
Every variant below is changed at Y31 of the VL (sequential numbering).
Values are log10 of the apparent Kd in nM; lower means stronger binding.
Replicates are averaged; those with no signal do not enter the mean.
"no signal" marks a missing value. The strain was present, yet no cells mated with the target were sequenced in any replicate, which points to weak or no binding.
Three control strains display no target. For library AAYL52, 28% of the pairings with them gave a signal, with a median of 3.91 and one signal in twenty below 2.90, so weak values seen in few replicates may be background.

With EGDSLRYYKAN, GKNNRPS, SSRPSSGFQWF the result was 2.56 (3 of 3 replicates).
With EGDSLRYYNAN, GKNNRPS, ISRDSCGFQVF the result was 1.27 (3 of 3 replicates).
With EGDSLRYYFAN, EKNNRPS, SSRDGSGFQVF the result was 3.86 (3 of 3 replicates).
With EGDSLRYYNAL, GKNNRPS, SWRDSSGFQVF the result was 2.17 (3 of 3 replicates).
With EGRKLRYYGAN, GKNNRPS, SSRDSSGFQVF the result was 4.60 (1 of 3 replicates).
With EGESLRYYDAN, GKNNRPS, SSVDSSGFQVF the result was 2.76 (2 of 3 replicates).
With EGDSLRYYLAN, GKNNRPS, KSRYSSGFQVF the result was 3.64 (1 of 3 replicates).
With EGDSLRYYEAN, GKNNRPS, SSRDDSLFQVF the result was 2.46 (3 of 3 replicates).
With EGDSLRYYRAY, GKNNRPS, SSRDSLGFQVF the result was 4.08 (3 of 3 replicates).
With EGDSLRYYTGN, GKNNRPS, SSRDHSGFQVF the result was 2.63 (2 of 3 replicates).
With EGDSLRYYLAN, GQNNRPS, FSRDSSGFQVF the result was 3.19 (3 of 3 replicates).
With EGDSLRYYRAN, GKNNRFS, SSRDSSGCQVF the result was 2.92 (2 of 3 replicates).
With EFDSQRYYWAN, GKNNRPS, SSRDSSGFQVF the result was 2.83 (3 of 3 replicates).
With EGDSLRYYIAF, GKNNRPS, SSRDSSYFQVF the result was no signal (0 of 3 replicates).
With EGDSLRYFKYN, GKNNRPS, SSRDSSGFQVF the result was 5.13 (1 of 3 replicates).
With ERDSLRYYIAN, GKNNRPH, SSRDSSGFQVF the result was 4.31 (1 of 3 replicates).
With EGDSLRYYGAN, GKNNRPI, SSRDSSGFVVF the result was 2.69 (3 of 3 replicates).
With EGDSLRYYHAN, GKNNRPS, SSRDSYAFQVF the result was 2.41 (3 of 3 replicates).
With EGDSLRYYWFN, PKNNRPS, SSRDSSGFQVF the result was 4.00 (3 of 3 replicates).
With EGDSLRYYWAN, GLNNRPS, SSRDSSGFQDF the result was 1.87 (3 of 3 replicates).
With EGDSLRYPQAN, GKNNRPS, SSRDSSPFQVF the result was 1.68 (3 of 3 replicates).
With EGDSLRYYSAQ, GKNNRPS, SKRDSSGFQVF the result was 3.03 (3 of 3 replicates).
With EGDSLRYYTAN, GKNNRPS, SSRDSSGNLVF the result was 2.62 (3 of 3 replicates).
With EGDSLVYMSAN, GKNNRPS, SSRDSSGFQVF the result was 2.41 (3 of 3 replicates).
With EIDSLRYYDAN, GKNNWPS, SSRDSSGFQVF the result was 4.22 (2 of 3 replicates).
With ETDSLRYYNAN, GKNNVPS, SSRDSSGFQVF the result was 3.82 (2 of 3 replicates).
With EGASLRYYIAN, GKNNRPS, SSRQSSGFQVF the result was 3.36 (3 of 3 replicates).
With EGDSLRYYEAN, GKNNRPQ, SSWDSSGFQVF the result was 3.59 (3 of 3 replicates).
With EGDSLGYYHAN, GKNNRRS, SSRDSSGFQVF the result was 3.07 (3 of 3 replicates).
With EGDSLRYYWAN, GGNNRPS, SSRDSSGFQVF the result was 2.76 (3 of 3 replicates).
With EGDSTRNYGAN, GKNNRPS, SSRDSSGFQVF the result was 1.94 (3 of 3 replicates).
With EGDSLRYYTAN, GKNNRPS, SSRDSSGWQDF the result was 2.41 (3 of 3 replicates).
With EGDSLRYYMAN, GKNNRPS, SSRDSSGFQVF the result was 1.97 (3 of 3 replicates).
With EGDSLRQYSAN, GKNNRPS, SSRDSSGFRVF the result was 1.72 (3 of 3 replicates).
With EGDSTRYYCAN, GKNNRPS, SSRDSSGFTVF the result was 4.40 (1 of 3 replicates).
With EGDSLRYFHAN, GKNFRPS, SSRDSSGFQVF the result was 2.49 (3 of 3 replicates).
With CGDSLRYYSAN, KKNNRPS, SSRDSSGFQVF the result was 4.24 (1 of 3 replicates).

Data: MIT Lincoln Laboratory AlphaSeq set, Engelhart et al. 2022, doi:10.1038/s41597-022-01779-4, as distributed in FLAb.